Assay results published in PubChem BioAssay AID602162 (NMMLSC, 2011).
The list shows a part of the results, in another mix than the full data. Activity calls are given as the source filed them.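 Rule for the calls: active = fluorescence ratio to DMSO below 75%, the collection mean minus 3 SD; inconclusive = too few cells collected in the well; inactive = the rest.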

Amino acid sequences for entries named in this document (tags omitted). A change or cut given only in a name is not applied to a line headed by its entry.
UniProt Q9NP58: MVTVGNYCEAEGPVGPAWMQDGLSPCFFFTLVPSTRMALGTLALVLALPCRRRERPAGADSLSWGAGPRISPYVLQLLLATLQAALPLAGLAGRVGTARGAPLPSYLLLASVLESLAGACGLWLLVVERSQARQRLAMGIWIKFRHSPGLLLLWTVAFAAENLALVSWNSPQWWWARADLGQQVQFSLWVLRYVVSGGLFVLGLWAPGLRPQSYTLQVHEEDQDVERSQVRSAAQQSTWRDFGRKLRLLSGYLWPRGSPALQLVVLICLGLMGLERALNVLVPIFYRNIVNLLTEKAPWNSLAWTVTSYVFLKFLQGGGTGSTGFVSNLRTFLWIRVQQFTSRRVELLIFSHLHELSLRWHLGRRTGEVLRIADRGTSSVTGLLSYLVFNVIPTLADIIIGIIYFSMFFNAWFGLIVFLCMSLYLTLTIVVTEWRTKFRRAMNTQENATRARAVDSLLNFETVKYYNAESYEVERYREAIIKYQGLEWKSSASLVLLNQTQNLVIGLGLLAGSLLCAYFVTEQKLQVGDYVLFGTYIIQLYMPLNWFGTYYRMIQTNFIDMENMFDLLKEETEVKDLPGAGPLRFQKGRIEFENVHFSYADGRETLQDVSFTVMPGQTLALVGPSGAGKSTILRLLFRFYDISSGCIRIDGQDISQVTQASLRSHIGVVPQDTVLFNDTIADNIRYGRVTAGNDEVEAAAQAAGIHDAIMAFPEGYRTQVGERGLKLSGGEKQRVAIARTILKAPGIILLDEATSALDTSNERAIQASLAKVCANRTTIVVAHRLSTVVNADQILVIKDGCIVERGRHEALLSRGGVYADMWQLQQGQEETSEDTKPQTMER

target: ATP-binding cassette sub-family B member 6 (Homo sapiens) (UniProt Q9NP58); experiment: blockers of ABCB6-driven porphyrin uptake – K562-ABCB6 cells, flow cytometry, MLPCN library, primary screen (AID 602162); details: K562-ABCB6 porphyrin accumulation, 1 h, at 10 µM, stronger effect = lower value;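 note: signal is porphyrin accumulated inside mitochondria; 100% equals median channel fluorescence of DMSO control wells; lower ratio means ABCB6 inhibition with less porphyrin fluorescence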

Row | Structure (SMILES) | fluorescence ratio to DMSO
1 | Cc1ccc(OP(=O)(Nc2nccs2)Oc2ccc(C)cc2)cc1 | inactive: 90%
2 | COc1ccccc1OP(=O)(Nc1ccc(C)cn1)Oc1ccccc1OC | inactive: 95%
3 | CN1CCCC(OC(=O)C(c2ccccc2)c2ccccc2)C1 (configuration not stated) | inactive: 101%
4 | Clc1ccc(Cl)c(NC2=NCC(CBr)S2)c1 (configuration not stated) | inactive: 102%
5 | Nc1cc(N)c2nonc2c1[N+](=O)[O-] | inactive: 99%
6 | CC(C)CC(=O)NC(Sc1ccc(Cl)cc1)C(Cl)(Cl)Cl (configuration not stated) | inactive: 99%
7 | O=C(NC(Sc1ccncn1)C(Cl)(Cl)Cl)c1ccccc1 (configuration not stated) | inactive: 98%
8 | Oc1ccccc1CNc1ccccn1 | inactive: 98%
9 | O=[N+]([O-])C1C(O)C(O)C([N+](=O)[O-])C(O)C1O (configuration not stated) | inactive: 93%
10 | COc1ccc(C2=NCC(CBr)S2)cc1 (configuration not stated) | inactive: 102%
11 | CC(=O)N1C2C3N(C(C)=O)C1C1N(C(C)=O)C(C(N1C(C)=O)N3C(C)=O)N2C(C)=O | inactive: 110%
12 | O=[N+]([O-])c1cccc2n[nH]nc12 | inactive: 86%
13 | O=[N+]([O-])c1cc([N+](=O)[O-])c(CCNc2ccccc2)c([N+](=O)[O-])c1 | inactive: 119%
14 | CCc1nc2c(n1)c1c(non1O)c1c2no[n+]1[O-] | inactive: 108%
15 | Cc1ccc(NP(=O)(Oc2ccccc2)Oc2ccccc2)nc1 | inactive: 95%
16 | C[N+]1=C2C=CC=CC=C2SC12C([N+](=O)[O-])=CC([N+](=O)[O-])=C[C-]2[N+](=O)[O-] (configuration not stated) | inactive: 97%
17 | Nc1ccc([As](=O)(O)c2ccc(N)cc2)cc1 | inactive: 85%
18 | CCN(/C(=N/P(=O)(N1CCOCC1)N1CCOCC1)N1CCOCC1)c1ccc(OC)cc1 | inactive: 101%
19 | CN(C)C(=O)OCCc1n(C)cc[n+]1C | inactive: 102%
20 | CC(C)c1nc(Nc2ccccc2)n(P(=O)(N(C)C)N(C)C)n1 | inactive: 99%
21 | CC(C)=N/N=C(\N)N[N+](=O)[O-] | inactive: 97%
22 | CC1CCN(C(=O)Oc2c(Cl)cc(Cl)c3cccnc23)CC1 | inactive: 108%
23 | c1cc(-c2nn[nH]n2)ccc1-c1nn[nH]n1 | inactive: 95%
24 | O=P1(N(CCCl)CCCl)OCCCS1 (configuration not stated) | inactive: 94%

Row | Structure (SMILES) | fluorescence ratio to DMSO
25 | O=C(Nc1cc([As](=O)(O)O)ccc1O)c1ccccc1 | inactive: 98%
26 | CC(C)(C)C(=O)NC(Sc1ccncn1)C(Cl)(Cl)Cl (configuration not stated) | inactive: 100%
27 | O=[N+]([O-])c1ncn(CCn2ncnc2[N+](=O)[O-])n1 | inactive: 98%
28 | COC(=O)C1(C)COP(=O)(Nc2ccccc2)OC1 (configuration not stated) | inactive: 97%
29 | O=[N+]([O-])c1cccc(NC2=NCC(CBr)S2)c1 (configuration not stated) | inactive: 92%
30 | O=C(O)CNc1ccc([As](=O)(O)O)cc1 | inactive: 95%
31 | COc1ccc(N)c([N+](=O)[O-])c1[N+](=O)[O-] | inactive: 91%
32 | Nc1ccc(CCCCOc2ccccc2)cc1 | inactive: 101%
33 | CN(C)C1(CNC(=O)c2ccc(Cl)c(S(N)(=O)=O)c2)CCCCC1 | inactive: 100%
34 | O=P(Nc1ccccn1)(c1ccc(Br)cc1)c1ccc(Br)cc1 | inactive: 94%
35 | C[C@H]1OP(=O)(Oc2ccccc2)[C@H](O)[C@H](O)[C@H]1N=[N+]=[N-] (some centres not stated) | inactive: 99%
36 | O=P(Nc1nc2ccccc2s1)(c1ccccc1)c1ccccc1 | inactive: 95%
37 | O=[N+]([O-])c1ncn(CCn2cnc([N+](=O)[O-])n2)n1 | inactive: 95%
38 | CC(=O)NC(SC(=S)N(C)C)C(Cl)(Cl)Cl (configuration not stated) | inactive: 102%
39 | O=[N+]([O-])c1ccc(O)c(/C=N/Nc2ccc([N+](=O)[O-])cc2[N+](=O)[O-])c1 | inactive: 92%
40 | O=[As](O)(c1ccccc1)c1ccc(O)cc1 | inactive: 96%
41 | C(Cc1nn[nH]n1)Cc1nn[nH]n1 | inactive: 96%
42 | Nc1ccc([As](=O)(O)c2ccc([N+](=O)[O-])cc2)cc1 | inactive: 102%
43 | O=C(OC1CN2CCC1CC2)c1cccc(Cl)c1 (configuration not stated) | inactive: 93%
44 | O=P(Nc1nccs1)(c1ccccc1)c1ccccc1 | inactive: 106%
45 | CC(C)C(=O)NC(Sc1ccccc1)C(Cl)(Cl)Cl (configuration not stated) | inactive: 98%
46 | c1nnnn1CCn1cnnn1 | inactive: 89%
47 | CCOc1ccc(C2=NCC(CBr)S2)cc1 (configuration not stated) | inactive: 92%
48 | O=P1(Nc2nc3ccc(Cl)cc3s2)COc2ccccc2O1 (configuration not stated) | inactive: 92%

Row | Structure (SMILES) | fluorescence ratio to DMSO
49 | CCc1cc(O)c([N+](=O)[O-])c(C)c1[N+](=O)[O-] | inactive: 99%
50 | CC(C)(C)C(=O)NC(Sc1ccccc1)C(Cl)(Cl)Cl (configuration not stated) | inactive: 102%
51 | COC(=O)C1(C)COP(=O)(NCc2ccccc2)OC1 (configuration not stated) | inactive: 94%
52 | CC(=O)c1ccc(N2CC2c2ccncc2)cc1 (configuration not stated) | inactive: 95%
53 | N#C/C(=C\c1ccc(N(CCBr)CCBr)cc1)C(N)=O | inactive: 100%
54 | C[C@H]1OP(=O)(Oc2ccccc2)C[C@@H]2O[C@@H]21 (some centres not stated) | inactive: 97%
55 | C[C@@H]1C=CCP(=O)(Oc2ccccc2)O1 (some centres not stated) | inactive: 100%
56 | Cc1ccccc1CN(C)C(=O)COC(=O)C(O)(c1ccccc1)c1ccccc1 | inactive: 94%
57 | CC(=O)Nc1ccc(Oc2c([N+](=O)[O-])cc([N+](=O)[O-])cc2[N+](=O)[O-])cc1 | inactive: 99%
58 | CC(=O)Nc1ccc([As](=O)(O)O)c(O)c1 | inactive: 97%
59 | O=C(NC1CCS(=O)(=O)C1)NP(=S)(Oc1ccccc1)Oc1ccccc1 (configuration not stated) | inactive: 98%
60 | CCNC(=S)/N=C(\N)N[N+](=O)[O-] | inactive: 96%
61 | Cc1ccc(NP(=O)(Oc2cccc(C)c2)Oc2cccc(C)c2)nc1 | inactive: 90%
62 | c1ccc(-c2nn[nH]n2)c(-c2nn[nH]n2)c1 | inactive: 103%
63 | O=P1(N(CCCl)CCCl)OCCC2CCCCN21 (configuration not stated) | inactive: 101%
64 | Cc1ccc(OP(=O)(Nc2ccccn2)Oc2ccc(C)cc2)cc1 | inactive: 95%
65 | CC(=O)NC(SC(=S)N(CC(C)C)CC(C)C)C(Cl)(Cl)Cl (configuration not stated) | inactive: 97%
66 | COC(=O)c1cc2c(s1)N=C(c1ccccc1)N(C)P2(=O)N1CCOCC1 (configuration not stated) | inactive: 100%
67 | CCC(=O)N1C2C3N(C(=O)CC)C1C1N(C(=O)CC)C(C(N1C(=O)CC)N3C(=O)CC)N2C(=O)CC | inactive: 101%
68 | O=C(OC1CN2CCC1CC2)c1ccccc1 (configuration not stated) | inactive: 99%
69 | O=c1c2cc([N+](=O)[O-])ccc2[nH]c2c([N+](=O)[O-])cc([N+](=O)[O-])cc12 | inactive: 98%
70 | CN(C)C(=O)Oc1noc2ccccc12 | inactive: 101%
71 | CC(NC(=O)COC(=O)C(O)(c1ccccc1)c1ccccc1)c1ccccc1 (configuration not stated) | inactive: 98%
72 | Cc1ccccc1OP(=O)(Nc1ccccn1)Oc1ccccc1C | inactive: 96%
